Consider four molecules from ChEMBL document CHEMBL1148776, “Structure-based optimization of protein tyrosine phosphatase 1B inhibitors: from the active site to the second phosphotyrosine binding site” (J Med Chem, 2007).

pKi: −log10 of the molar value.

In assay [1] the target is T1, Tyrosine-protein phosphatase non-receptor type 1 (Homo sapiens, UniProt P18031).
T1 sequence (P18031 whole entry): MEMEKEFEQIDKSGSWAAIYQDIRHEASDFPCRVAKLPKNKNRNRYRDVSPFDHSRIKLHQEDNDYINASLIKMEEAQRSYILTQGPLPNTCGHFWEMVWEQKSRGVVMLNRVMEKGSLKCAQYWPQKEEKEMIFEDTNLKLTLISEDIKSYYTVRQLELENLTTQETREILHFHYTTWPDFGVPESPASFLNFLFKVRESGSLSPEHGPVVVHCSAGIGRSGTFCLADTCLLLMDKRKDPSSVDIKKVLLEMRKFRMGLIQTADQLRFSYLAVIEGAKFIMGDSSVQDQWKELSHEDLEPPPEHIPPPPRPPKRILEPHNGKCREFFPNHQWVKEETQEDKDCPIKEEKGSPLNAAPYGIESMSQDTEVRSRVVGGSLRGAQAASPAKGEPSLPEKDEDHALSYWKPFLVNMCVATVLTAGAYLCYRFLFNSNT
The assay can be described thus: Inhibition of human recombinant PTP1B.

The target of assay [2] is T2, Tyrosine-protein phosphatase non-receptor type 2 (Homo sapiens, UniProt P17706).
T2 sequence (P17706 whole entry): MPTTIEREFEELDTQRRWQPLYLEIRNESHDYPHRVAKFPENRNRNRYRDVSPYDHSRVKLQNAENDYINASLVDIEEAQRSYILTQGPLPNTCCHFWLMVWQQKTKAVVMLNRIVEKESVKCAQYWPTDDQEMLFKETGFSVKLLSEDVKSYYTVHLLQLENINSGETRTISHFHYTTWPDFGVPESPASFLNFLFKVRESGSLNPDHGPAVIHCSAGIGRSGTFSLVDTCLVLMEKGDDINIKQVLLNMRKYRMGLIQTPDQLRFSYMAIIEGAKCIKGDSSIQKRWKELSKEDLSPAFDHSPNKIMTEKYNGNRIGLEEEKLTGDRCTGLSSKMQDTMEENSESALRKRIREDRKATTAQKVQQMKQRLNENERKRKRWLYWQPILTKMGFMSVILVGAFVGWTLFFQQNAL

For orientation: pKi means the Ki on a negative log10 scale, so that one unit is a factor of ten.

As for `O=C(O)COc1c(C(=O)O)sc(-c2cccc(NCc3ccccc3)c2)c1Br`, the negative-log Ki (pKi) in assay [1] was 6.33. Regarding `Cc1cccc(C)c1NC(=O)N1CCC(CNc2cccc(-c3sc(C(=O)O)c(OCC(=O)O)c3Br)c2)CC1`, the pKi in assay [2] was 8.05. On to `O=C(O)COc1c(C(=O)O)sc(-c2cccc(NC3CCCCC3)c2)c1Br`, for which the negative logarithm of the Ki (pKi) in assay [1] was 6.68.

`O=C(O)COc1c(C(=O)O)sc(-c2cccc(NC3CCN(S(=O)(=O)Cc4ccccc4)CC3)c2)c1Br`: the negative logarithm of the Ki (pKi) in assay [2] is 8.30.
